ChEMBL document CHEMBL1155457, “Discovery of the dual orexin receptor antagonist [(7R)-4-(5-chloro-1,3-benzoxazol-2-yl)-7-methyl-1,4-diazepan-1-yl][5-methyl-2-(2H-1,2,3-triazol-2-yl)phenyl]methanone (MK-4305) for the treatment of insomnia” (J Med Chem, 2010)

Experiments:
[1] = Ratio of drug level in brain to plasma in rat at 0.25 to 1.5 mg/kg, iv after 30 mins; details: 0.5 h
[2] = Ratio of drug level in brain to plasma in rat at 10 mg/kg, po after 1 hr
[3] = Ratio of drug level in brain to plasma in rat at 0.25 to 2 mg/kg, iv after 30 mins; details: 0.5 h

C[C@@H]1CCN(c2ncc3cc(F)ccc3n2)CCN1C(=O)c1ccccc1-n1nccn1
BPR [1]: 0.4

Cc1ccc(-n2nccn2)c(C(=O)N2CCN(c3nc4cc(Cl)ccc4o3)CC[C@H]2C)c1 [SUVOREXANT]
BPR [2]: 0.7 | BPR [3]: 0.6
